Reference: patent publication US10555936B2, “Chemotherapeutic compositions and methods for treating human gliomas” (The Methodist Hospital, priority 2011, dated 2020)

What was measured:
BT-111 cells [1] = experiment: LDH growth assay, primary GBM cells; conditions: BT-111 primary GBM cells
Description: Primary GBM. Primary human glioblastoma cells were obtained from surgical theater, and subsequently grown in MEM with penicillin/streptomycin and 10% FBS (Invitrogen Corp., Carlsbad, Calif., USA). After two or more weeks of growth and splitting, 250 μL of resulting cells (at a density of 1×10^4 cells per mL) were plated into 96-well microtiter plates (Corning, Inc., New York City, N.Y., USA), and grown to confluence by incubation at 37° C. for at least 24 hr.
After 24 hrs, cells were treated with 20 μL/mL of ethanol, containing either the test drugs, inhibitors, or no additives (internal controls).
LDH Assay. After the XTT levels were determined the cells were washed using 2×250 μL of 5 mM glucose/3 mM Tris/30 mM HEPES/10 mM NaCl buffer (pH 7.4). The levels of lactate dehydrogenase activity in the presence of detergent (Korzeniewski and Callewaert, 1983; Decker and Lohmann-Matthes, 1988) were then assayed in each well (Corning). The final assay mixture contained 100 μL of 110 mM lactate, 3.35 mM NAD^+, 350 μM resazurin (Sigma-Aldrich), and 2.2 units/mL of diaphorase in 5 mM glucose/3 mM Tris/30 mM HEPES/10 mM NaCl buffer (pH 7.4) and 0.45% TritonX-100. The resorufin formed was measured over the course of 15 min in a plate reader using at 530/25 nm excitation (ex) and 590/35 nm emission (em). […]

BT-111 cells [2] = experiment: XTT mitochondrial complex activity assay; assay type: cell-based, human; conditions: read-out: concentration that abolished half of the mitochondrial complex activity; BT-111, XTT
BT-111 cells [3] = experiment: Mitochondrial membrane potential, Mitotracker Red; assay type: cell-based, human
glioma cells = experiment: Mitochondrial proteins L11 and cytochrome c, antibody labeling
Description: Antibody Labeling. Anti-mitochondrial ribosomal protein L11 rabbit antibody (ab74285) and Anti-cytochrome c antibody (ab13575) were obtained from Abcam (Cambridge, Mass., USA), and were visualized using labeled secondary antibodies; Alexa Fluor 594 goat anti-mouse IgG (A-11032) and Alexa Fluor 488 goat anti-rabbit IgG (A-11034) from Invitrogen. Permeabilized cells were blocked with 10% equine sera (Invitrogen) for 1 hr, washed in PBS/0.1% Triton X-100 and then incubated overnight with primary antibody (1:1000), washed twice in PBS/0.1% Triton X-100, incubated with the secondary's overnight and then washed twice more. DNA was stained using DAPI (Invitrogen) by incubation with 30 nM DAPI in PBS for 5 min, and then cells were washed twice in PBS/0.1% Triton X-100. The wells were then filled with 100 μL PBS/0.1% Triton X-100, and imaging performed.
3) Effect of MP-MUS (I) on Mitochondrial Proteins. […] It was evident that there was an increase in the levels of L11 (red), and cytochrome c (green), after only 24 hrs' incubation.
Extending the incubation to 48 hrs led to a loss of morphology, bloated nuclei, and a loss of defined mitochondria. Although the levels of L11 remained high, there was an almost complete loss of cytochrome c.

BT-111 cells [4] = experiment: Measurement of DNA breaks; conditions: compared with temozolomide
Description: ddTUNEL. A Tdt reaction buffer was prepared daily diluting a stock solution of 125 mM Tris-HCl, 1 M sodium cacodylate, 1.25 mg/mL BSA, pH 6.6 by 1:5 and diluting 1:25 a 25 mM cobalt chloride stock solution. The sample was twice washed in this solution and then ≈50 μL of reaction buffer containing 20 U/mL of Tdt and 250 nM of labeled-ddUTP was applied to each of the sections, which were then incubated in a humidified box overnight at room temperature or for 2 hrs at 37° C. Roche Biotin-16-ddUTP (Roche Diagnostics, Branford, Conn., USA) was used throughout and was visualized using Texas-Red labeled Avidin (Baskin et al., 2010a; Baskin et al., 2010b).
A paired sample underwent the same ligation following incubation with DNA polymerase/dNTP, so all overhanging ends were converted into blunt ends. […] It was clear that MP-MUS (I) was extremely good at inducing DNA breaks, far more so than the conventional methylation agent, temozolomide. […] Additionally, overhanging ends were the most common type of break observed.

[5] = test system: human glioblastoma multiforme xenograft (BT111); experiment: Human GBM xenograft, nude mouse flank model
From the text: FIG. 31A and FIG. 31B show the effects of 24-hr MP-MUS treatment. A statistically-significant drop in tumor volume, about 50%, was observed;
FIG. 33A and FIG. 33B show GBM from untreated and MP-MUS treated tumors. While the untreated cells appeared just like parental BT111, the MP-MUS-treated cells were in poor condition, as evidenced by a lot of cell debris (even though they had already been washed);
Statistical difference in on the top, first p<0.05, the p<0.005, and finally p<0.0005;
FIG. 35 show a different plot (untreated minus treated average) of the data.
. The distribution of the untreated mice is Gaussian (i.e., normal), but the biggest one in the MP-MUS treated makes it non-Gaussian;
In the previous examples, it was shown that MP-MUS can successfully treat human glioblastoma multiforme xenograft cultures in a nude mouse flank model.

BT116 glioblastoma [6] = experiment: Intracranial human glioblastoma model
Description: Postglenoid Foramen Injection. […] Some five minutes after injection and recovery from the anesthetic, the majority of the mice were walking around and were phenotypically normal within an hour. In the main study 40 SCID immuno-deficient mice were injected via the postglenoid foramen with glioblastoma in Matrigel™:tissue culture medium, 4:6, to a final cell load of 2,500,000 cells per animal; according to Iwami et al., (2012). […] A number of the SCID mice died following the glioma injections or had deficits in the first few weeks following the initial injection. After >3 months, 24 animals were asymptomatic, and 22 animals were split into two groups; MP-MUS treated and Saline treated. The remaining pair was sacrificed and their brains were fixed/waxed and archived as pre-treatment controls.
Drug Therapy and Symptom Monitoring. On day 115 mice are then given either 200 μL saline or 200 μL of 1 mg/mL MP-MUS in saline, via tail-vein injection. The same treatment was repeated on days 122 and 129.
The mice were initially placed in groups of 2×4 and 1×3 animals and were individually every 1-3 days. The mice were assessed for the onset of neurological symptoms caused by an intracranial tumor throughout the study. Symptoms in the mice that require euthanasia were sudden weight loss; >2 grams in 7 days, deficits of movement that caused the animal to be unable to drink/feed and immobility. […]

BT116 glioblastoma [7] = experiment: Human vimentin and CD3-ε histology of mouse brains
Description: We used the mildest conditions that would remove the majority of endogenous and added peroxidase activity, but not destroy the human vimentin. **For Vector Mouse Anti-Vimentin clone V9 and Santa Cruz Mouse anti-EGFR clone 528 the procedure was performed as shown. For CD3-ε, an extra step was used. CD3-ε was bound using an Arminian Hamster anti-CD3 epsilon antibody [145-2C11] conjugated with FITC, at a 1:10 dilution, for 1 hour. This was developed using a mouse anti-FITC antibody, Sigma clone FL-D6, at 1:100 dilution, for 1 hour. ***Either a HRP-linked horse anti-Mouse antibody to develop DAB or the HiDef™ HRP-polymer system was used, the latter of which gave better signal-to-noise ratio, but has a disadvantage of detecting some levels of endogenous IgG in SCID mice;
For vector mouse anti-vimentin clone #V9 and Santa Cruz Mouse anti-EGFR clone #528 the procedure was performed as shown. For CD3-ε, an extra step was used. CD3-ε was bound using an Arminian Hamster anti-CD3 epsilon antibody [145-2C11] conjugated with FITC, at a 1:10 dilution, for 1 hr. This was developed using a mouse anti-FITC antibody. Sigma clone FL-D6, at 1:100 dilution for 1 hr. Either an HRP-linked horse anti-Mouse antibody (to develop DAB), or the HiDef™ HRP-polymer system (which gives better signal-to-noise ratio, but may detect endogenous IgG in SCID mice) was used.
Detection of Vimentin and CD3-ε in MP-MUS Treated Animals. The same histological analysis was performed on three complete brains of the MP-MUS-treated animals. Their fixed brains were sectioned in groups of five, cut at 5 μm, with 3-4 individual brain sections per slide, the whole width of the brain. In MP-MUS #7, the inventors were unable to detect human vimentin in representative sections of the entire brain. At the injection site, there were voids, with some blood/blood breakdown products. CD3-ε cells, with low expression level were identifiable throughout the brain, but at lower density to those observed in the Saline treated mice. […]

For `CC(C(=O)N(CCCl)CCCl)C1=CCN(C)CC1` (stereo not drawn), the “LD50, fold lower than temozolomide” value (BT-111 cells [1]) was 5 fold, the IC50 (BT-111 cells [2]) was 2000 nM and the “mitochondrial membrane potential reduction” value (BT-111 cells [3]; 12 μM for 24 hours) was “reduced by more than a third”. The “Mitotracker Red signal lowered to” value (BT-111 cells [3]; 12 μM for 24 hr) was 31%, the “drop in Mitotracker Red signal on co-incubation with selegiline” value (BT-111 cells [3]; 12 μM for 24 hr with 10 μM selegiline) was “almost completely arrested” and the “signal conserved on co-incubation with MAO-B inhibitor” value (BT-111 cells [3]; 12 μM, 24 hours, co-incubated with selegiline) was 90%. For the same compound, the “levels of L11 and cytochrome c” value (glioma cells; 24 hrs' incubation, 10 μM) was “increase in the levels of L11 (red), and cytochrome c (green)”, the cell death (glioma cells; 48 hrs incubation) was over 95% and the cytochrome c level (glioma cells; 48 hrs incubation, 10 μM) was “almost complete loss of cytochrome c”. For the same compound, the “induction of DNA breaks” value (BT-111 cells [4]) was “extremely good at inducing DNA breaks”, the “drop in tumor volume” value ([5]; 24-hr MP-MUS treatment) was “about 50%” and the “tumor growth relative to the untreated rate” value ([5]; after the first injection) was “less than 50%”. The mice cured ([5]; distribution in tumor size) was “Two mice were cured”, the “treated mice with tumors less than the smallest untreated tumor” value ([5]; distribution in tumor size) was 90% and the “condition of GBM cells cultured from treated tumors” value ([5]; tumor extracted, minced, cultured) was “in poor condition”. The “tumor shrinkage after the first injection” value ([5]; untreated minus treated average) was 60%, the onset of symptoms (BT116 glioblastoma [6]; Day 225, 11 mice, study ended Day 307) was 1st MP-MUS mouse symptomatic and the “deaths in treated group” value (BT116 glioblastoma [6]; n=11, 3 tail-vein injections of 200 μL 1 mg/mL, survival curve) was “only one animal in the MP-MUS treated group died”. For the same compound, the “vimentin-positive cells in one section near injection site” value (BT116 glioblastoma [7]; mouse MP-MUS #1) was under 20 cells, the “human vimentin in sections of the entire brain” value (BT116 glioblastoma [7]; mouse MP-MUS #7) was “unable to detect human vimentin” and the “human gliomal cells in left, non-injected hemisphere” value (BT116 glioblastoma [7]; mouse MP-MUS #8) was “no human gliomal cells were identified”.
